Laboratory results taken from patent US20070213359A1 (ACADIA Pharmaceuticals Inc., priority 2005, published 2007).
This is a selection: effects in other tests are not listed, and their absence says nothing.

Protein sequences, listed by entry. Tags and fused reporters are not part of them.
UniProt Q92847, whole entry: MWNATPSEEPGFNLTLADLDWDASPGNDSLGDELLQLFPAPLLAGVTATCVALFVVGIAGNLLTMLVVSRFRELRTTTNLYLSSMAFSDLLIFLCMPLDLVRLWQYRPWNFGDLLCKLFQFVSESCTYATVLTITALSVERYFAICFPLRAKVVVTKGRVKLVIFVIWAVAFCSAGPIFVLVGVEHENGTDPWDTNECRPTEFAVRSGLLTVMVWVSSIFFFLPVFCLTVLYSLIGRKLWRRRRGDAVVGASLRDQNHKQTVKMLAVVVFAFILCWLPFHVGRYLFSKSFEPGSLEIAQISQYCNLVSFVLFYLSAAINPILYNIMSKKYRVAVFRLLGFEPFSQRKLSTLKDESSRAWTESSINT

Target: Ghrelin receptor (Homo sapiens, UniProt Q92847)
Experiment: Receptor Selection and Amplification Technology (R-SAT) assay
Format: cell-based

COc1cccc2c(C(C)=O)cn(CCCN3CCC(n4c(=O)[nH]c5ccccc54)CC3)c12
RSAT pIC50 (negative logarithm of ligand concentration causing 50% inhibition of constitutive receptor response, transfected NIH3T3 cells, '—' not defined (nd used separately)): 6.0
RSAT Eff(%) (percent inhibition at saturating ligand, normalized to reference ligand Substance P analog = 100%): 90%
